Laboratory results from patent publication US11517572B2, “Killing senescent cells and treating senescence-associated conditions using a SRC inhibitor and a flavonoid” (Mayo Foundation for Medical Education and Research, priority 2014, dated 2022).

System: senescent cells
Conditions: microscopic examination

Structure (SMILES): CNC(=O)c1cc(Oc2ccc(NC(=O)Nc3ccc(Cl)c(C(F)(F)F)c3)cc2)ccn1 [sorafenib]
- killing of senescent and non-senescent cells: both senescent cells and non-senescent cells were killed
